Legend:
MycN = molecular target: T1, MycN (Homo sapiens, UniProt P04198); test: Degradation of MycN protein in SK-N-BE(2) cells, JESS/Western blot of lysates; format: cell-based; settings: SKNBE2, 24 h; for Dmax at 0.5 µM: read-out: % Degradation of MycN (SKNBE2) 24 h, 0.5 μM; for Dmax at 1 µM: read-out: % Degradation of MycN (SKNBE2) 24 h, 1 μM; for Dmax at 3 µM: read-out: % Degradation of MycN (SKNBE2) 24 h, 3 μM; for Dmax at 6 µM: read-out: % Degradation of MycN (SKNBE2) 24 h, 6 μM
T1 construct: endogenous in cells; host or cells: SK-N-BE(2)
T1 sequence (P04198 1-464): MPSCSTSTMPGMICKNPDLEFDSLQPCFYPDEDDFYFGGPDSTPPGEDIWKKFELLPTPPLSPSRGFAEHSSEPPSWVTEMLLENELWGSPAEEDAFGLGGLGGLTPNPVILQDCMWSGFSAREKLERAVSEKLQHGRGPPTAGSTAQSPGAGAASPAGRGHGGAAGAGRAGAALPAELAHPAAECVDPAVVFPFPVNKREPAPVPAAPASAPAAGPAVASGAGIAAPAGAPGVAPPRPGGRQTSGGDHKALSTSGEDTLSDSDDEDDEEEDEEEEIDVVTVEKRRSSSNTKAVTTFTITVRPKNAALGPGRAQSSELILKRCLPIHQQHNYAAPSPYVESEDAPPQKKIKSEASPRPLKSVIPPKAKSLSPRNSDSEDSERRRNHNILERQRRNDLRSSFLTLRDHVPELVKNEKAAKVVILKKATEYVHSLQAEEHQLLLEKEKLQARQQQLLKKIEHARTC
Procedure: (§1) For L363 cells (suspension), 1E6 cells were plated into each well of a 6 well plate. For SK-N-BE(2) cells (adherent), 5E5 cells were plated into each well of a 6 well dish. Cells were cultured for 24 hrs then treated with exemplary compounds at 0.1, 0.5, 1.0, 3.0 and 6.0 mM final assay concentrations plus DMSO control. All compounds were diluted to 10 mM in DMSO. Cells were treated with the compound for 24 hrs, then for both cell types, media containing cells were removed from wells into a 15 ml centrifuge tube, and remaining adherent SK-N-BE(2) cells were also scraped from the wells into the appropriate tubes. Tubes were centrifuged, cells were washed with PBS then re-centrifuged to pellet cells. A RIPA buffer cocktail was added to the cells on ice for 5 mins. Cell lysates were clarified by centrifugation and stored at −80 degrees until required. BCA assay was performed on each lysate to determine the protein concentration.
(§2) Once an appropriate lysate concentration and antibody concentration was determined, samples were screened in the JESS technology (Protein Simple, San Jose, CA—https://www.proteinsimple.com/jess.html).
(§3) Target protein antibodies (n-myc and c-myc) were detected in the chemi-luminescence channel and loading controls (tubulin and GAPDH) were detected using a Near Infra Red (NIR) labeled secondary antibody.
For SK-N-EB2 adherent cells, 5E5 cells in 1.9 mls media were plated into 6 well dishes and incubated for 24 hrs. Exemplary compounds were added (100 ul, 1 in 20 dilution in media) to each well (final assay concentration 6, 3, 1 and […]) together with DMSO control wells and incubated for 24 hrs. Cells were scrapped off the plate, centrifuged, washed with PBS, centrifuged, then a RIPA buffer cocktail added to the cells (100 ul), centrifuged and stored at −80 for later analysis. For L363 suspension cells, 1E6 cells were plated into 24 well dishes (950 ul media) and incubated for 24 hrs. Exemplary compounds were added (50 ul, 1 in 20 dilution in media) to each well (final assay concentration 6, 3, 1 and […]) together with DMSO control wells and incubated for 24 hrs. Cells were aspirated into tubes, centrifuged, washed with PBS, centrifuged, then a RIPA buffer cocktail added to the cells (100 ul), centrifuged and stored at −80 for later analysis.
(§4) For Western blot, a BCA (total protein) assay was run on all samples, these were then run in batches of 5 compounds plus control (DMSO) on each Western blot run—n-myc and c-myc were run in separate experiments in the chemiluminescence channel. Both tubulin and GAPDH were run as loading controls in all lanes in the near infra red channel.

The chains behind the UniProt entries cited, without tags or fusion partners. Where a name states a change or a piece, a line headed by the entry shows the natural chain unless it says otherwise.
UniProt P01106: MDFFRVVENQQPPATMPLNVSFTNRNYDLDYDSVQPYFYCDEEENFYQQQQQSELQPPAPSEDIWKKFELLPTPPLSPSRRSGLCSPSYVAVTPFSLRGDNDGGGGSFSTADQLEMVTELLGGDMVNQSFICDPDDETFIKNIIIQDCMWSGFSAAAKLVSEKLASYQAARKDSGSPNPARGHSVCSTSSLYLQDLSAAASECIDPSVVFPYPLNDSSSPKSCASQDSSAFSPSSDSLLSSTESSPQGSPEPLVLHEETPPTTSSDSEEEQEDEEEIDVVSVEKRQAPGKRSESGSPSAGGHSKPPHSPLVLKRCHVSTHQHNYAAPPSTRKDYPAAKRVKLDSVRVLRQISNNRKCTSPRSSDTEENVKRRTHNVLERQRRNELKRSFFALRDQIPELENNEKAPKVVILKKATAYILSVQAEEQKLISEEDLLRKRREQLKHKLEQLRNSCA

MycC = molecular target: T2, MycC (Homo sapiens, UniProt P01106); test: Degradation of MycC protein in L363 cells, JESS/Western blot of lysates; format: cell-based; settings: L-363, 24 h; for Dmax at 3 µM: read-out: % Degradation of MycC (L-363) 24 h, 3 μM; for Dmax at 6 µM: read-out: % Degradation of MycC (L-363) 24 h, 6 μM; for Dmax at 1 µM: read-out: % Degradation of MycC (L-363) 24 h, 1 μM
T2 construct: endogenous in cells; host or cells: L363
Procedure: as §1, with “Cells were cultured for 24 hrs then treated with exemplary compounds at 0.1, 0.5, 1.0, 3.0 and 6.0 mM final assay concentrations plus DMSO control.” left out
as §2, §3
For SK-N-EB2 adherent cells, 5E5 cells in 1.9 mls media were plated into 6 well dishes and incubated for 24 hrs. […] Cells were scrapped off the plate, centrifuged, washed with PBS, centrifuged, then a RIPA buffer cocktail added to the cells (100 ul), centrifuged and stored at −80 for later analysis. For L363 suspension cells, 1E6 cells were plated into […] (950 ul media) and incubated for 24 hrs. […] Cells were aspirated into tubes, centrifuged, washed with PBS, centrifuged, then a RIPA buffer cocktail added to the cells (100 ul), centrifuged and stored at −80 for later analysis.
as §4

CNCC12CC(CN(c3nccc(Nc4cc(C5CC5)[nH]n4)n3)C1)C2 [Compound 184, N-(5-Cyclopropyl-1H-pyrazol-3-yl)-2-[1-(methylaminomethyl)-3-azabicyclo[3.1.1]heptan-3-yl]pyrimidin-4-amine]
Dmax at 0.5 µM (MycN): 20 to 49%
Dmax at 1 µM (MycN): 50 to 79%
Dmax at 3 µM (MycN): 80 to 100%
Dmax at 6 µM (MycN): 80 to 100%
Dmax at 3 µM (MycC): 50 to 79%
Dmax at 6 µM (MycC): 80 to 100%

CS(=O)(=O)C1(C#N)CCCN(c2nccc(Nc3cc(C4CC4)[nH]n3)n2)C1 (stereo not drawn) [Compound 185, 1-[4-[(5-Cyclopropyl-1H-pyrazol-3-yl)amino]pyrimidin-2-yl]-3-methylsulfonyl-piperidine-3-carbonitrile]
Dmax at 0.5 µM (MycN): 80 to 100%
Dmax at 1 µM (MycN): 80 to 100%
Dmax at 3 µM (MycN): 80 to 100%
Dmax at 6 µM (MycN): 80 to 100%
Dmax at 0.5 µM (MycC; read-out: % Degradation of MycC (L-363) 24 h, 0.5 μM): 80 to 100%
Dmax at 1 µM (MycC): 80 to 100%
Dmax at 3 µM (MycC): 80 to 100%
Dmax at 6 µM (MycC): 80 to 100%

N#CC12CC(C1)N(c1nccc(Nc3cc(C4CC4)[nH]n3)n1)C2 [Compound 186, 2-[4-[(5-cyclopropyl-1H-pyrazol-3-yl)amino]pyrimidin-2-yl]-2-azabicyclo[2.1.1]hexane-4-carbonitrile]
Dmax at 0.5 µM (MycN): < 20%
Dmax at 1 µM (MycN): < 20%
Dmax at 3 µM (MycN): 80 to 100%
Dmax at 6 µM (MycN): 80 to 100%
Dmax at 1 µM (MycC): < 20%
Dmax at 3 µM (MycC): 80 to 100%
Dmax at 6 µM (MycC): 80 to 100%
